One molecule from PMC4950264 (Molecular Ecology, 2016) can be followed below.

Amino acid sequences for entries named in this document (tags omitted). Residues count along the entry.
UniProt Z9NKG6IF05, 1-492: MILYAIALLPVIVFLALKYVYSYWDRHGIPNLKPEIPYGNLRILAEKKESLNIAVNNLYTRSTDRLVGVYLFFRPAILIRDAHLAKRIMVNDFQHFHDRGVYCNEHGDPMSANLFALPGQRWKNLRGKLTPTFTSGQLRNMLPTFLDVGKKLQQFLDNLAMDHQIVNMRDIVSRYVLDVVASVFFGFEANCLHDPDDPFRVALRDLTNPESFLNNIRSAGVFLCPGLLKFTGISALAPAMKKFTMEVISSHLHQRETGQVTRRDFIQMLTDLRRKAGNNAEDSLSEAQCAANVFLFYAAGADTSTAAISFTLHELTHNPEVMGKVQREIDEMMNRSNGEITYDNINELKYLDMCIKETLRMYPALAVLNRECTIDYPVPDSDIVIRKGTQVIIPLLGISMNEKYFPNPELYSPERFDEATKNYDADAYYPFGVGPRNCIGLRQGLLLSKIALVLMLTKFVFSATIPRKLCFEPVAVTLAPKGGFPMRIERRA

In the test the target is CYP6Z1 (Anopheles funestus, UniProt Z9NKG6IF05). The test can be described thus: fluorescent probe O-dealkylation kinetics, recombinant membranes. As to conditions: NADPH regenerating system.

As to `CCOc1ccc2c(c1)Oc1cc(OCC)ccc1C21OC(=O)c2ccccc21`, the Km came out at 0.13 µM.

A word on the Km: it is the concentration of substrate that gives half-maximal velocity.
